Earlier results as cited in publication PMC11106675, “Synthesis of 1,4-azaphosphinine nucleosides and evaluation as inhibitors of human cytidine deaminase and APOBEC3A” (Beilstein Journal of Organic Chemistry, 2024).

Experiments:
[1] = in solution (water)
CDA = details: read-out: inhibition constant (Ki)

**Q.** Which stability in solution [1] does the source give for `NP1(=O)C=CN([C@@H]2O[C@H](CO)[C@@H](O)[C@H]2O)C(=O)N1` (some centres unmarked) here?
**A.** unstable in solution

**Q.** What about the Ki (CDA) of the same compound?
**A.** 0.9 nM
